# Laboratory results: PubChem BioAssay AID624256 (NMMLSC, 2012)
# This is a selection; strong and weak results do not stand in their true shares. Activity calls are given as the source filed them.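 How the source made its calls: active means normalized GFP-positive differentiation at or above the plate's own cutoff, the solvent-only control mean plus 3 SD; inconclusive means no clear call, values can overlap the other calls; inactive means the rest.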
# Assay: induction of myeloid progenitor differentiation, primary screen, cell-based, flow cytometry, MLPCN library (AID 624256);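 on normalized GFP-positive differentiation: cells exposed to compound for four days before flow analysis; 0% = DMSO wells and 100% = fulvestrant positive control at 5 µM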
# Details: ER-HoxA9 myeloid progenitors, lysozyme-GFP differentiation, at 10 µM; active compounds read high
row,Compound,normalized GFP-positive differentiation
1,CN1CCC(Nc2ccc(Cl)cc2)CC1,inactive
2,COc1cccc(C(c2nnnn2C2CCCC2)N2CCC(n3c(=O)[nH]c4ccccc43)CC2)c1OC (stereo unspecified),inactive
3,COc1cc(OC)cc(C(=O)NCC2(N3CCOCC3)CCCCC2)c1,inactive
4,COc1cccc(C(=O)N(c2cc(C)cc(C)c2)C2CCN(C(=O)OC(C)(C)C)CC2)c1,inactive
5,CCC(CO)(C(=O)OC1CN2CCC1CC2)c1ccccc1 (stereo unspecified),inactive
6,O=C(O)C1(Nc2ccccc2)CCN(Cc2ccccc2)CC1,inactive
7,NN(c1ccccc1)C1CCN(CCc2ccccc2)CC1,inactive
8,CC(C)(C)OC(=O)N1CCC(Nc2ccccc2)CC1,inactive
9,CCCOc1ccc(C(=O)NCC2(N(C)C)CCCCC2)cc1,inactive
10,O=c1[nH]c2ccccc2n1C1CCN(C(c2cc3ccccc3o2)c2nnnn2C2CCCC2)CC1 (stereo unspecified),inactive
11,CN1CCC(Nc2ccc(F)c(Cl)c2)CC1,inactive
12,CCOc1ncccc1C(=O)NCC1(N2CCOCC2)CCCCC1,inactive
13,Cn1c(=O)[nH]cc(N(CCCl)CCCl)c1=O,inactive
14,CN(C)c1ccc(C(=O)NCC2(N3CCCCC3)CCCCC2)cc1,inactive
15,O=C(NCC1(N2CCCCC2)CCCCC1)c1ccco1,inactive
16,CC(C)(C)n1nnnc1C(c1ccnc2ccccc12)N1CCC(n2c(=O)[nH]c3ccccc32)CC1 (stereo unspecified),inactive
17,COc1ccc(C(c2nnnn2C2CCCCC2)N2CCC(n3c(=O)[nH]c4ccccc43)CC2)cc1 (stereo unspecified),inactive
18,CCN1CCC(Nc2cccc(F)c2)CC1,inactive
19,Cc1ccccc1NC1(C#N)CCN(Cc2ccccc2)CC1,inactive
20,Fc1ccccc1NC1CCN(Cc2ccccc2)CC1,inactive
21,Cc1ccc(C(=O)NCC2(N3CCCCC3)CCCCC2)o1,inactive
22,Cc1ccc(NC2(C#N)CCN(Cc3ccccc3)CC2)cc1,inactive

row,Compound,normalized GFP-positive differentiation
1,CCC(c1nnnn1C1CCCCC1)N1CCC(n2c(=O)[nH]c3ccccc32)CC1 (stereo unspecified),inactive
2,CC(=O)N(c1ccccc1)C1CCNCC1,inactive
3,COc1cccc(C(c2nnnn2C2CCCCC2)N2CCC(n3c(=O)[nH]c4ccccc43)CC2)c1OC (stereo unspecified),inactive
4,O=c1[nH]c2ccccc2n1C1CCN(C(c2ccnc3ccccc23)c2nnnn2C2CCCCC2)CC1 (stereo unspecified),inactive
5,COc1cc(OC)cc(C(=O)NCC2(N3CCCCC3)CCCCC2)c1,inactive
6,CC(C)(C)n1nnnc1C(c1cccc2ccccc12)N1CCC(n2c(=O)[nH]c3ccccc32)CC1 (stereo unspecified),inactive
7,CN(C)C1(CNC(=O)c2cccc(C#N)c2)CCCCC1,inactive
8,O=c1[nH]c2ccccc2n1C1CCN(C(c2ccccc2)c2nnnn2C2CCCC2)CC1 (stereo unspecified),inactive
9,CCCN1CCC(Nc2cc(OC)cc(OC)c2)CC1,inactive
10,c1ccc(CN2CCC(Nc3ccccc3)CC2)cc1,inactive
11,N#Cc1ccc(C(=O)NCC2(N3CCCCC3)CCCCC2)cc1,inactive
12,CC(C)(C)OC(=O)N1CCC(N(C(=O)c2ccccc2)c2ccc(Cl)cc2)CC1,inactive
13,O=c1[nH]c2ccccc2n1C1CCN(C(c2cccs2)c2nnnn2C2CCCC2)CC1 (stereo unspecified),inactive
14,O=C(OC1CN2CCC1CC2)C1c2ccccc2C=Cc2ccccc21 (stereo unspecified),inactive
15,CCCCn1nnnc1C(c1cccc(OC)c1OC)N1CCC(n2c(=O)[nH]c3ccccc32)CC1 (stereo unspecified),inactive
16,COc1cccc(C(c2nnnn2C(C)(C)C)N2CCC(n3c(=O)[nH]c4ccccc43)CC2)c1OC (stereo unspecified),inactive
17,N/C(=N\O)c1c(N)no[n+]1[O-],inactive
18,O=c1[nH]c2ccccc2n1C1CCN(C(c2cccs2)c2nnnn2C2CCCCC2)CC1 (stereo unspecified),inactive
19,O=c1[nH]c2ccccc2n1C1CCN(C(c2ccnc3ccccc23)c2nnnn2C2CCCC2)CC1 (stereo unspecified),inactive
20,COc1ccc(C(=O)NCC2(N3CCOCC3)CCCCC2)cc1OC,inactive
21,COc1cc(C(=O)NCC2(N3CCOCC3)CCCCC2)cc(OC)c1C,inactive
22,CCCCn1nnnc1C(c1ccccc1)N1CCC(n2c(=O)[nH]c3ccccc32)CC1 (stereo unspecified),inactive

row,Compound,normalized GFP-positive differentiation
1,O=C(NCC1(N2CCOCC2)CCCCC1)c1cc(Br)ccc1Cl,inactive
2,COc1ccc(C(c2nnnn2C2CCCC2)N2CCC(n3c(=O)[nH]c4ccccc43)CC2)cc1 (stereo unspecified),inactive
3,CCCOc1ccc(C(=O)NCC2(N(C)C)CCCCC2)cc1OC,inactive
4,Cc1ccc(C(=O)NCC2(N(C)C)CCCCC2)o1,inactive
5,O=C(NCC1(N2CCCCC2)CCCCC1)c1cncc(Br)c1,inactive
6,CN1CCC(Nc2cccc(F)c2)CC1,inactive
7,O=C(NCC1(N2CCOCC2)CCCCC1)c1cc(F)c(F)cc1Cl,inactive
8,CCC(c1nnnn1C(C)(C)C)N1CCC(n2c(=O)[nH]c3ccccc32)CC1 (stereo unspecified),inactive
9,COc1cc(OC)c(C(=O)NCC2(N(C)C)CCCCC2)cc1OC,inactive
10,CCCCn1nnnc1C(c1ccnc2ccccc12)N1CCC(n2c(=O)[nH]c3ccccc32)CC1 (stereo unspecified),inactive
11,CC(C)c1ccc(NC2CCN(C(=O)OC(C)(C)C)CC2)cc1,inactive
12,CCCCn1nnnc1C(c1ccccc1OC(F)(F)F)N1CCC(n2c(=O)[nH]c3ccccc32)CC1 (stereo unspecified),inactive
13,CN(C)c1cccc(C(=O)NCC2(N3CCCCC3)CCCCC2)c1,inactive
14,COc1ccc(CN(CCCl)CCCl)cc1Cl,inactive
15,COc1cc(C(=O)NCC2(N3CCCCC3)CCCCC2)ccc1OC(F)F,inactive
16,O=C(NCC1(N2CCOCC2)CCCCC1)c1cc(=O)[nH]c2ccccc12,inactive
17,CCCCn1nnnc1C(c1cccc2ccccc12)N1CCC(n2c(=O)[nH]c3ccccc32)CC1 (stereo unspecified),inactive
18,CN1CCN(CCOC(=O)C(O)(c2ccccc2)c2ccccc2)CC1,inactive
19,COc1ccc(NC2CCN(C(=O)OC(C)(C)C)CC2)cc1,inactive
20,CC(C)c1ccc(C(=O)NCC2(N3CCOCC3)CCCCC2)cc1,inactive
21,O=C(NCC1(N2CCCCC2)CCCCC1)c1cccc(C(F)(F)F)c1,inactive
22,N#CC1(Nc2ccccc2)CCN(CCc2ccccc2)CC1,inactive

row,Compound,normalized GFP-positive differentiation
1,O=c1[nH]c2ccccc2n1C1CCN(C(c2ccccc2OC(F)(F)F)c2nnnn2C2CCCC2)CC1 (stereo unspecified),active: 27.9%
2,CCN1CCC(Nc2ccc(Cl)cc2)CC1,inactive
3,CSc1ccc(C(=O)NCC2(N3CCOCC3)CCCCC2)cc1,inactive
4,O=C(NCC1(N2CCCCC2)CCCCC1)c1cccc([N+](=O)[O-])c1,inactive
5,O=C(NCC1(N2CCCCC2)CCCCC1)c1ccc(OC(F)F)cc1,inactive
6,CC(C)(C)n1nnnc1C(c1ccccc1OC(F)(F)F)N1CCC(n2c(=O)[nH]c3ccccc32)CC1 (stereo unspecified),inactive
7,COc1cc(C(=O)NCC2(N(C)C)CCCCC2)ccc1OC(F)F,inactive
8,CCOC(=O)N1CCC(Nc2cccc(C)c2)CC1,inactive
9,O=c1[nH]c2ccccc2n1C1CCN(C(c2cccc3ccccc23)c2nnnn2C2CCCC2)CC1 (stereo unspecified),inactive
10,O=c1[nH]c2ccccc2n1C1CCN(C(c2ccccc2)c2nnnn2C2CCCCC2)CC1 (stereo unspecified),inactive
11,COc1ccc(NC2CCN(CCc3ccccc3)CC2)c(OC)c1,inactive
12,CCOC(=O)N1CCC(Nc2ccc(F)cc2)CC1,inactive
13,O=C(NCC1(N2CCCCC2)CCCCC1)c1ccc(F)cc1,inactive
14,O=P1(N(CCCl)CCCl)SCCCS1,inactive
15,CCCCn1nnnc1C(c1cc2ccccc2o1)N1CCC(n2c(=O)[nH]c3ccccc32)CC1 (stereo unspecified),inactive
16,CCCCOc1ccc(C(=O)NCC2(N3CCOCC3)CCCCC2)cc1,inactive
17,O=C1CCN(Cc2ccccc2)CC1,inactive
18,CC(C)(C)n1nnnc1C(c1ccccc1)N1CCC(n2c(=O)[nH]c3ccccc32)CC1 (stereo unspecified),inactive
19,CCOc1ccc(C)cc1CN(CCCl)CCCl,inactive
20,COc1ccc(Cl)cc1C(=O)NCC1(N2CCOCC2)CCCCC1,inactive
21,O=C(OC1CN2CCC1CC2)C1c2ccccc2Oc2ccccc21 (stereo unspecified),inactive
22,O=c1[nH]c2ccccc2n1C1CCN(C(c2cc3ccccc3o2)c2nnnn2C2CCCCC2)CC1 (stereo unspecified),inactive

row,Compound,normalized GFP-positive differentiation
1,N#CC1(Nc2ccccc2)CCN(Cc2ccccc2)CC1,inactive
2,O=C(NCC1(N2CCCCC2)CCCCC1)c1ccc(Cl)s1,inactive
3,CCCCn1nnnc1C(c1ccc(OC)cc1)N1CCC(n2c(=O)[nH]c3ccccc32)CC1 (stereo unspecified),inactive
4,CCOC(=O)N1CCC(Nc2ccc(OC)cc2)CC1,inactive
5,Cc1cc(C)cc(N(C(=O)c2ccccc2)C2CCN(C(=O)OC(C)(C)C)CC2)c1,inactive
6,O=c1[nH]c2ccccc2n1C1CCN(C(c2ccccc2OC(F)(F)F)c2nnnn2C2CCCCC2)CC1 (stereo unspecified),inactive
7,O=C(NCC1(N2CCCCC2)CCCCC1)c1ccc(Cl)nc1,inactive
8,O=C(NCC1(N2CCOCC2)CCCCC1)c1cc2ccccc2o1,inactive
9,Cc1cccc(NC2(C#N)CCN(Cc3ccccc3)CC2)c1,inactive
10,CSc1ccccc1C(=O)NCC1(N2CCCCC2)CCCCC1,inactive
11,CCC(c1nnnn1C1CCCC1)N1CCC(n2c(=O)[nH]c3ccccc32)CC1 (stereo unspecified),inactive
12,COc1ccc(C(=O)NCC2(N3CCCCC3)CCCCC2)c(OC)c1OC,inactive
13,CC(C)(C)OC(=O)N1CCC(N(C(=O)c2ccccc2)c2ccc(F)cc2)CC1,inactive
14,COc1ccc(C(=O)NCC2(N3CCCCC3)CCCCC2)cc1,inactive
15,CCCCn1nnnc1C(c1cccs1)N1CCC(n2c(=O)[nH]c3ccccc32)CC1 (stereo unspecified),inactive
16,CCCCn1nnnc1C(CC)N1CCC(n2c(=O)[nH]c3ccccc32)CC1 (stereo unspecified),inactive
17,O=C(NCC1(N2CCCCC2)CCCCC1)c1cccs1,inactive
18,O=C(NCC1(N2CCCCC2)CCCCC1)c1ccc(=O)[nH]c1,inactive
